Patent US7488730B2, “N-(1,2,3,4-tetrahydronaphthalen-1-yl)-4-phenyl-1-piperazinealkylamide derivatives, and therapeutic use thereof as 5-HT7 receptor ligands” (Universita Degli Studi Di Bari, priority 2005, dated 2009)

Chains of the proteins cited; added tags and fusions are not shown.
UniProt P19327, whole entry: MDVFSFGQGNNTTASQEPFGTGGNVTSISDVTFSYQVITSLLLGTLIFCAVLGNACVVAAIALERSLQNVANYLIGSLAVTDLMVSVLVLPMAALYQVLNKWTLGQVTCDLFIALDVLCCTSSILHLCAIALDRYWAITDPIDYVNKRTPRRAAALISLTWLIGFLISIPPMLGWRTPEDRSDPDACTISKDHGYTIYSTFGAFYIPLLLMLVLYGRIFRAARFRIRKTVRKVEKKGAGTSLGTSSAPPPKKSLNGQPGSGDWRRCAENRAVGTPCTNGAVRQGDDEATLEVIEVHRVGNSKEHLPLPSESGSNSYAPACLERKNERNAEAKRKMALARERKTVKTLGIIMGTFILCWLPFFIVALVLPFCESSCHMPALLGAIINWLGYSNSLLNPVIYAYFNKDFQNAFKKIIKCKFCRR

Molecular target: 5-HT1A receptors (Rattus norvegicus, UniProt P19327)
Conditions: read-out: Ki, nM 5-HT1A; [3H]-8-OH-DPAT, rat hippocampal membranes

COc1ccccc1N1CCN(CCC(=O)NC2CCCc3c(OC)cccc32)CC1 (stereo not shown) [Compound 6]
Ki: 253 ± 25 nM
